Assay: 28-day toxicokinetic (TK) study in rats
Type: in vivo, rat
Settings: same dose of 40 mg/kg in rats on day 1

C=CC(=O)N1CC[C@@H](n2nc(-c3ccc(Oc4c(F)c(F)cc(F)c4F)cc3F)c3c(N)ncnc32)C1 [Compound 45, 1-((R)-3-(4-amino-3-(2-fluoro-4-(2,3,5,6-tetrafluorophenoxy)phenyl)-1H-pyrazolo[3,4-d]pyrimidin-1-yl)pyrrolidin-1-yl)prop-2-en-1-one]
Exposure relative to ibrutinib: 5- to 14 fold

— US10300066B2, “Polyfluorinated compounds acting as bruton tyrosine kinase inhibitors” (ZHEJIANG DTRM BIOPHARMA CO. LTD., priority 2014, dated 2019)
